Experimental data as given in PubChem BioAssay AID540317 (National Center for Advancing Translational Sciences (NCATS), 2011).
The list shows a part of the results, in another mix than the full data. Records with an inconclusive call do not appear. Some salts and complexes are drawn in separate pieces, as the source files them; their charges need not balance. Active and inactive are the calls of the source. Calls come from the whole dose curve; as a rule, active = well fitted inhibition curve with a large enough effect; inconclusive = small, poorly fitted or top-dose-only effect; inactive = no such curve, though single readings can be large or run the other way.

Protein sequences, listed by entry. Tags and fused reporters are not part of them.
UniProt P83916, whole entry: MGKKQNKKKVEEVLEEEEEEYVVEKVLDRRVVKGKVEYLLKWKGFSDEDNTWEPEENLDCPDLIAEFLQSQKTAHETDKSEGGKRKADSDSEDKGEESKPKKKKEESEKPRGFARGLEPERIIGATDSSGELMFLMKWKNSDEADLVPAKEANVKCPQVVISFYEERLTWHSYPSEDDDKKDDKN

target: Chromobox protein homolog 1 (Homo sapiens) (UniProt P83916); assay: HTS for Inhibitors of HP1-beta Chromodomain Interactions with Methylated Histone Tails; conditions: AlphaScreen HP1-beta / biotin-H3K9me3 peptide binding; at 114 µM (top of the series); note: nearly all actives have a fitted effect of over 70% in size

Row | Compound | activity change, negative = inhibition
1 | O=C(NCC1(N2CCOCC2)CCCCC1)c1ccccc1 | inactive: 41.1%
2 | Cc1cc(N(CCCl)CCCl)ccc1C=O | inactive: 59.9%
3 | CCCN1CCC(Nc2cc(OC)cc(OC)c2)CC1 | inactive: 10.8%
4 | c1ccc(CN2CCC(Nc3ccccc3)CC2)cc1 | inactive: 55.3%
5 | CN(C)C1(CNC(=O)c2cccc(C#N)c2)CCCCC1 | inactive: 19.1%
6 | CCOC(=O)C(CC)C1=NC(C)(C)Cc2ccccc21.O=[N+]([O-])c1cc([N+](=O)[O-])c(O)c([N+](=O)[O-])c1 (stereo not given) | inactive: 29.4%
7 | O=C(NCC1(N2CCOCC2)CCCCC1)c1ccc([N+](=O)[O-])cc1 | inactive: 1.81%
8 | CC(C)(C)OC(=O)N1CCC(N(C(=O)c2ccccc2)c2ccc(Cl)cc2)CC1 | inactive: 29%
9 | N#Cc1ccc(C(=O)NCC2(N3CCCCC3)CCCCC2)cc1 | inactive: 27.3%
10 | O=C(NCC1(N2CCOCC2)CCCCC1)c1ccccc1[N+](=O)[O-] | inactive: 39.5%
11 | O=C(O)c1cccc(Nc2c([N+](=O)[O-])cc([N+](=O)[O-])cc2[N+](=O)[O-])c1 | inactive: 46.6%
12 | O=C(OC1CN2CCC1CC2)C1c2ccccc2C=Cc2ccccc21 (stereo not given) | inactive: 27.5%
13 | CCc1cc(C(=O)NCC2(N3CCCCC3)CCCCC2)sc1C | inactive: 21.8%
14 | N/C(=N\O)c1c(N)no[n+]1[O-] | inactive: 22.1%
15 | CCOC(=O)N1CCC(Nc2ccc(C)cc2)CC1 | inactive: 4.73%
16 | COc1ccc(C(=O)NCC2(N3CCOCC3)CCCCC2)cc1OC | inactive: 26.6%
17 | O=C(NCC1(N2CCOCC2)CCCCC1)c1cc(Br)ccc1Cl | inactive: 82.9%
18 | COc1cc(C(=O)NCC2(N3CCOCC3)CCCCC2)cc(OC)c1C | inactive: 3.16%
19 | CN1CCC(Nc2ccc(Cl)cc2)CC1 | inactive: 13.7%
20 | CCC(CO)(C(=O)OC1CN2CCC1CC2)c1ccccc1 (stereo not given) | inactive: 17.4%
21 | COc1cc(OC)cc(C(=O)NCC2(N3CCOCC3)CCCCC2)c1 | inactive: 33.4%
22 | COc1cc(C(=O)NCC2(N3CCOCC3)CCCCC2)cc(OC)c1OC | inactive: 33.8%
23 | COc1cccc(C(=O)N(c2cc(C)cc(C)c2)C2CCN(C(=O)OC(C)(C)C)CC2)c1 | inactive: 11.5%

Row | Compound | activity change, negative = inhibition
24 | CCCOc1ccc(C(=O)NCC2(N(C)C)CCCCC2)cc1 | inactive: 25.2%
25 | O=C(O)C1(Nc2ccccc2)CCN(Cc2ccccc2)CC1 | inactive: 5.32%
26 | CC(C)(C)OC(=O)N1CCC(Nc2ccccc2)CC1 | inactive: 18.3%
27 | CN1CCC(Nc2ccc(F)c(Cl)c2)CC1 | inactive: 15.5%
28 | CCOc1ncccc1C(=O)NCC1(N2CCOCC2)CCCCC1 | inactive: 21.9%
29 | Cn1c(=O)[nH]cc(N(CCCl)CCCl)c1=O | inactive: 39.8%
30 | CC(C)(C)c1ccc(C(=O)NCC2(N3CCOCC3)CCCCC2)cc1 | inactive: 39.4%
31 | O=C(NCC1(N2CCCCC2)CCCCC1)c1ccco1 | inactive: 29.8%
32 | Cc1ccccc1C(=O)NCC1(N(C)C)CCCCC1 | inactive: 23.1%
33 | Cc1ccccc1NC1(C#N)CCN(Cc2ccccc2)CC1 | inactive: 34.4%
34 | Cc1ccc(NC2(C#N)CCN(Cc3ccccc3)CC2)cc1 | inactive: 16.8%
35 | Fc1ccccc1NC1CCN(Cc2ccccc2)CC1 | inactive: -11.5%
36 | Cc1ccc(C(=O)NCC2(N3CCCCC3)CCCCC2)o1 | inactive: 19.9%
37 | COc1cc(OC)cc(C(=O)NCC2(N3CCCCC3)CCCCC2)c1 | inactive: -10.7%
38 | CC(=O)N(c1ccccc1)C1CCNCC1 | inactive: 15.1%
39 | CN(C)C1(CNC(=O)c2ccc(C(C)(C)C)cc2)CCCCC1 | inactive: 29.6%
40 | COc1cc(C(=O)NCC2(N(C)C)CCCCC2)ccc1OC(F)F | inactive: 13.4%
41 | CCOC(=O)N1CCC(Nc2cccc(C)c2)CC1 | inactive: 16.5%
42 | COc1ccc(NC2CCN(CCc3ccccc3)CC2)c(OC)c1 | inactive: -21.3%
43 | CCOC(=O)N1CCC(Nc2ccc(F)cc2)CC1 | inactive: 14.2%
44 | O=C(NCC1(N2CCCCC2)CCCCC1)c1ccc(F)cc1 | inactive: 4.99%
45 | O=P1(N(CCCl)CCCl)SCCCS1 | inactive: -21.2%
46 | CCCCOc1ccc(C(=O)NCC2(N3CCOCC3)CCCCC2)cc1 | inactive: 44.1%

Row | Compound | activity change, negative = inhibition
47 | COc1ccccc1C(=O)NCC1(N2CCOCC2)CCCCC1 | inactive: 54.5%
48 | CCOc1ccc(C)cc1CN(CCCl)CCCl | inactive: 15.8%
49 | O=C1CCN(Cc2ccccc2)CC1 | inactive: 17.5%
50 | O=C(NCC1(N2CCOCC2)CCCCC1)c1ccc(Cl)cc1 | inactive: 33.5%
51 | CCOC(=O)N1CCC(Nc2ccc(OC)cc2)CC1 | inactive: -15.1%
52 | COc1ccc(Cl)cc1C(=O)NCC1(N2CCOCC2)CCCCC1 | inactive: 49.3%
53 | O=C(OC1CN2CCC1CC2)C1c2ccccc2Oc2ccccc21 (stereo not given) | inactive: 25%
54 | N#CC1(Nc2ccccc2)CCN(Cc2ccccc2)CC1 | inactive: 32%
55 | O=C(NCC1(N2CCCCC2)CCCCC1)c1ccc(Cl)s1 | inactive: 25.5%
56 | O=C(NCC1(N2CCOCC2)CCCCC1)c1cc2ccccc2o1 | inactive: 15.7%
57 | Cc1cc(C)cc(N(C(=O)c2ccccc2)C2CCN(C(=O)OC(C)(C)C)CC2)c1 | inactive: 44%
58 | O=C(NCC1(N2CCCCC2)CCCCC1)c1ccc(Cl)nc1 | inactive: 15.4%
59 | Cc1cccc(NC2(C#N)CCN(Cc3ccccc3)CC2)c1 | inactive: 33.8%
60 | CSc1ccccc1C(=O)NCC1(N2CCCCC2)CCCCC1 | inactive: -10.9%
61 | O=C(NCC1(N2CCCCC2)CCCCC1)c1cccs1 | inactive: 20.4%
62 | O=C(NCC1(N2CCCCC2)CCCCC1)c1ccc(=O)[nH]c1 | inactive: 29.2%
63 | CC(C)(C)OC(=O)N1CCC(N(C(=O)c2ccccc2)c2ccc(F)cc2)CC1 | inactive: 33.5%
64 | COc1ccc(C(=O)NCC2(N3CCCCC3)CCCCC2)c(OC)c1OC | inactive: 39.3%
65 | COc1ccc(C(=O)NCC2(N3CCCCC3)CCCCC2)cc1 | inactive: 11.6%
66 | CCCOc1ccc(C(=O)NCC2(N(C)C)CCCCC2)cc1OC | inactive: 14.7%
67 | O=C(NCC1(N2CCOCC2)CCCCC1)c1ccccc1Br | inactive: 24.2%
68 | CCCCOc1ccccc1C(=O)NCC1(N2CCOCC2)CCCCC1 | inactive: 46.2%
69 | COc1ccc2c(c1O)-c1c(O)c(OC)cc3c1[C@H](C2)[N+](C)(C)CC3.O=[N+]([O-])c1cc([N+](=O)[O-])c([O-])c([N+](=O)[O-])c1[O-] | inactive: 7.73%

Row | Compound | activity change, negative = inhibition
70 | O=C(NCC1(N2CCCCC2)CCCCC1)c1cncc(Br)c1 | inactive: 2.8%
71 | O=C(OC1CN2CCC1CC2)c1ccc([N+](=O)[O-])cc1 (stereo not given) | inactive: 38.4%
72 | O=C(NCC1(N2CCOCC2)CCCCC1)c1cc(F)c(F)cc1Cl | inactive: 51.1%
73 | COc1cc(OC)c(C(=O)NCC2(N(C)C)CCCCC2)cc1OC | inactive: 6.67%
74 | O=[N+]([O-])c1cc([N+](=O)[O-])c(OC2CCCCC2O)c([N+](=O)[O-])c1 (stereo not given) | inactive: 46.8%
75 | CN(C)c1cccc(C(=O)NCC2(N3CCCCC3)CCCCC2)c1 | inactive: 10.9%
76 | COc1ccc(CN(CCCl)CCCl)cc1Cl | inactive: 47.9%
77 | CN1CCN(CCOC(=O)C(O)(c2ccccc2)c2ccccc2)CC1 | inactive: 1.54%
78 | CC(C)c1ccc(C(=O)NCC2(N3CCOCC3)CCCCC2)cc1 | inactive: 8.57%
79 | COc1ccc(NC2CCN(C(=O)OC(C)(C)C)CC2)cc1 | inactive: 2.31%
80 | COc1cc(C(=O)NCC2(N3CCCCC3)CCCCC2)ccc1OC(F)F | inactive: 30.9%
81 | O=C(NCC1(N2CCOCC2)CCCCC1)c1cc(=O)[nH]c2ccccc12 | inactive: 18.4%
82 | CCCOc1cccc(C(=O)NCC2(N3CCOCC3)CCCCC2)c1 | inactive: 55%
83 | O=C(NCC1(N2CCCCC2)CCCCC1)c1cccc(C(F)(F)F)c1 | inactive: 9.35%
84 | O=[N+]([O-])c1cc([N+](=O)[O-])c(NCC2CCS(=O)(=O)C2)c([N+](=O)[O-])c1 (stereo not given) | inactive: 22.1%
85 | CSc1ccc(C(=O)NCC2(N3CCOCC3)CCCCC2)cc1 | inactive: 9.85%
86 | CCOc1ccc(C(=O)NCC2(N3CCOCC3)CCCCC2)cc1 | inactive: 29.4%
87 | O=C(NCC1(N2CCCCC2)CCCCC1)c1cccc([N+](=O)[O-])c1 | inactive: 17.5%
88 | N#CC1(Nc2ccccc2)CCN(CCc2ccccc2)CC1 | inactive: 44.4%
89 | CCN1CCC(Nc2ccc(Cl)cc2)CC1 | inactive: -4.98%
90 | O=C(NCC1(N2CCCCC2)CCCCC1)c1ccc(OC(F)F)cc1 | inactive: -3.33%
